# AlphaSeq binding of Ab-14 light chain variants to a spike HR2 peptide

The measurements come from Engelhart et al. 2022 (doi:10.1038/s41597-022-01779-4) through the FLAb antibody collection.

Target: peptide PDVDLGDISGINAS, taken from heptad repeat 2 (HR2) of SARS-CoV-2 spike.

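The parent was found by panning a naive human phage display library on the peptide. The library (AAYL50) carries one to three amino acid substitutions per variant, with no insertions or deletions. AlphaSeq pools MATa yeast showing the antibodies with MATalpha yeast showing the peptide. The frequency of each diploid, read from paired DNA barcodes, reflects how well the two displayed proteins bind. Each replicate has its own calibration line, from reference interactions of the BCL2 family. The assay was run in three technical replicates.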

The variants keep the heavy chain, the linker and the frameworks of Ab-14 (scFv order VH, a (GGGGS)3 linker, VL).
VH: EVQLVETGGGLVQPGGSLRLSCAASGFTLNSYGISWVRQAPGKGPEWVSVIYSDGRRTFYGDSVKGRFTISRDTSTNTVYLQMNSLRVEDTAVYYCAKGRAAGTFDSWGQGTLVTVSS
VL: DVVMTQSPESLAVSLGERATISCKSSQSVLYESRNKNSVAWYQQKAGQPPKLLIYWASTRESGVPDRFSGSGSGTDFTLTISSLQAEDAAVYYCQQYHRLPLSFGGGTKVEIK

Each variant is given by its three light chain CDRs, as the data file delimits them; those of the parent are KSSQSVLYESRNKNSVA, WASTRES, QQYHRLPLS. The read-out is the apparent dissociation constant on a log10 scale (nM): the lower, the stronger. The mean shown is taken over the replicates in which the pair was detected. "n.d." means that the variant was in the library but no mating with the target was seen in that replicate; the authors take this as a sign of poor binding, and no number exists. Three control strains display no target. For library AAYL50, 18% of the pairings with them gave a signal, with a median of 4.19 and one signal in twenty below 2.99, so weak values seen in few replicates may be background. For each scFv, signals with the empty controls are counted beside the result, with their mean in brackets.

| # | CDR-L1 | CDR-L2 | CDR-L3 | replicates, log10 nM | mean, log10 nM | empty controls |
|---|---|---|---|---|---|---|
| 1 | YSSQSVLYEKRNKNSVA | WGSTRES | QQYHRLPLS | 1.41 1.42 1.39 | 1.41 | 0 of 9 |
| 2 | KSSQSVLYESNAKNSVA | WASTRES | QQYHQLPLS | 0.47 0.66 0.58 | 0.57 | 7 of 9 (4.65) |
| 3 | KSKQSVLGESRNKNSVA | WASTHES | QQYHRLPLS | 3.49 3.81 n.d. | 3.65 | 1 of 9 (2.66) |
| 4 | KSSQSVLYESRAKNSVA | WASTRES | QQYHRLNLS | 1.17 1.48 1.86 | 1.50 | 3 of 9 (3.97) |
| 5 | KSSQSCLYESRNKNSVA | WASTRMS | QQQHRLPLS | 5.20 n.d. n.d. | 5.20 | 2 of 9 (3.23) |
| 6 | MSSQVVLYESRNKNSVA | WASTRES | QQYTRLPLS | 2.76 n.d. n.d. | 2.76 | 1 of 9 (3.36) |
| 7 | KSSSEVLYESRNKNAVA | WASTRES | QQYHRLPLS | 0.45 0.74 0.63 | 0.61 | 0 of 9 |
| 8 | KSSQSVLYESRNKNSVG | WAVTREG | QQYHRLPLS | 3.64 n.d. n.d. | 3.64 | 6 of 9 (3.83) |
| 9 | KSSESVLYEHRNKNSVA | QASTRES | QQYHRLPLS | 0.27 0.55 1.04 | 0.62 | 0 of 9 |
| 10 | HFSQWVLYESRNKNSVA | WASTRES | QQYHRLPLS | 1.68 2.06 2.10 | 1.95 | 2 of 9 (3.68) |
| 11 | KISQSVLYESRNPNSVA | WASTRES | QQYHHLPLS | 0.39 0.54 0.49 | 0.47 | 2 of 9 (4.31) |
| 12 | KSKQSVLYESRNENSVA | WASTREI | QQYHRLPLS | 1.44 1.61 1.66 | 1.57 | 0 of 9 |
| 13 | KSSQSVLYMSRNKNSLA | DASTRES | QQYHRLPLS | -0.25 0.08 -0.10 | -0.09 | 3 of 9 (4.68) |
| 14 | KHSQSVLYESRNKCSVA | WASVRES | QQYHRLPLS | 1.70 1.87 1.91 | 1.83 | 4 of 9 (5.27) |
| 15 | KSSQSVLYESRNPNSVA | WATTRES | QDYHRLPLS | 0.85 1.05 1.13 | 1.01 | 1 of 9 (4.82) |
| 16 | KSSQSVLYESRRKNSVA | WASTRES | YQYHRLHLS | 0.86 1.13 1.29 | 1.09 | 0 of 9 |
| 17 | KSSQSDLYESRNHNSVA | WRSTRES | QQYHRLPLS | 1.49 1.70 1.57 | 1.59 | 0 of 9 |
| 18 | KFSQSVLYESSNKNSVA | WASTREN | QQYHRLPLS | -0.23 0.14 -0.15 | -0.08 | 2 of 9 (4.81) |
| 19 | KQSQSVLYEFRNKNSVA | WASTRES | QQWHRLPLS | 1.80 1.82 1.98 | 1.87 | 2 of 9 (4.63) |
| 20 | KSSQSVLYESRNKNSVR | WASTRAT | QQYHRLPLS | n.d. n.d. n.d. | n.d. | 3 of 9 (4.04) |
| 21 | KSSQSRLYESRNKNSVS | WASTRES | NQYHRLPLS | n.d. n.d. n.d. | n.d. | 3 of 9 (4.35) |
| 22 | KSSPSVLYESRNTNSVA | WAPTRES | QQYHRLPLS | 5.82 n.d. n.d. | 5.82 | 4 of 9 (3.83) |
| 23 | KSSQSQLYESRNKNPVA | WASTREI | QQYHRLPLS | 2.30 2.47 3.63 | 2.80 | 4 of 9 (3.32) |
| 24 | KSSQSVVYEIRNKNPVA | WASTRES | QQYHRLPLS | 2.79 2.52 2.38 | 2.56 | 4 of 9 (4.20) |
| 25 | KSSQSWLYESRNKCFVA | WASTRES | QQYHRLPLS | n.d. 5.28 4.45 | 4.87 | 5 of 9 (4.14) |
| 26 | KSSGSHLYESRNKNSVA | WASTRES | QQYHRHPLS | 2.17 1.34 1.59 | 1.70 | 0 of 9 |
| 27 | KSSQSVLYESRNKDSVA | WASTRPS | QNYHRLPLS | n.d. n.d. n.d. | n.d. | 1 of 9 (3.51) |
| 28 | KSSQSHLFESRNKNSVA | WASTDES | QQYHRLPLS | n.d. n.d. n.d. | n.d. | 2 of 9 (5.06) |
| 29 | KSSQSVEFESRNKNSVA | WASTRES | QQYHRLPLD | 0.41 0.63 0.58 | 0.54 | 3 of 9 (4.58) |
| 30 | KSSQSVLYESSNKNSVA | WAYTRES | QQYHTLPLS | n.d. n.d. n.d. | n.d. | 0 of 9 |
| 31 | KSSQSVLYESRNKNSVA | WASTRVS | QQYHRMWLS | 0.56 0.79 0.64 | 0.66 | 3 of 9 (4.03) |
| 32 | KKSQSVLYESRNKNSVA | CASERES | QQYHRLPLS | 3.20 2.80 2.68 | 2.89 | 1 of 9 (3.84) |
| 33 | KSSQSVLYESRNKNSLA | FASTRES | QQYERLPLS | 1.81 1.76 2.43 | 2.00 | 1 of 9 (4.59) |
| 34 | KSSQSVLYESRNKLSVA | WASTRES | EQYHRLPHS | n.d. n.d. n.d. | n.d. | 0 of 9 |
| 35 | KDSQSVLYEHRNKNSVA | WASTRES | QWYHRLPLS | 3.96 3.26 n.d. | 3.61 | 2 of 9 (4.55) |
| 36 | KESQSVLYDSRNKNSVA | WASTRES | QQYHRLPLS | 0.91 1.09 1.16 | 1.05 | 3 of 9 (4.36) |
| 37 | KSSQSVLYEYRNKNAVA | WKSTRES | QQYHRLPLS | 1.50 1.60 1.49 | 1.53 | 0 of 9 |
| 38 | KSSQSVLYESRNKNSVA | WASTRES | QDYHRLPCS | n.d. n.d. n.d. | n.d. | 0 of 9 |
| 39 | KSSQSVLYESRNKNSLA | WASTREI | QQYHWLPLS | 1.11 1.28 1.17 | 1.19 | 1 of 9 (5.09) |
| 40 | KSSQMVLYSSRNKNSVA | WASTRES | QQYWRLPLS | 2.69 2.52 2.81 | 2.67 | 1 of 9 (2.80) |
| 41 | CSSQSVLYEFRNKYSVA | WASTRES | QQYHRLPLS | 4.31 3.20 n.d. | 3.75 | 4 of 9 (3.47) |
| 42 | KSSQSVLYESRNKNSVA | WARTRCS | QQFHRLPLS | 2.81 2.49 3.22 | 2.84 | 5 of 9 (4.01) |
| 43 | KSSQSVLYESRNKNLVA | VASTRES | QQYHRLPLS | n.d. n.d. n.d. | n.d. | 0 of 9 |
| 44 | KSSQSVLYVSTNKNNVA | WASTRES | QQYHRLPLS | 1.89 1.90 2.43 | 2.07 | 2 of 9 (4.70) |
| 45 | KSSQSVEYESRNHNSVA | WASTRES | QQYHRLPLE | 0.55 0.68 0.62 | 0.62 | 4 of 9 (4.92) |
| 46 | KISQSVLYESANKNSVA | WASTRES | QIYHRLPLS | n.d. n.d. n.d. | n.d. | 0 of 9 |
| 47 | KSSQSVLYEWRNKNSVA | WASTMES | QQYIRLPLS | n.d. n.d. n.d. | n.d. | 1 of 9 (4.51) |

Again, the first 4 entries without any signal:

CDR-L1	CDR-L2	CDR-L3	replicates, log10 nM	mean, log10 nM	empty controls
KSSQSVLYESRNKNSVR	WASTRAT	QQYHRLPLS	n.d. n.d. n.d.	n.d.	3 of 9 (4.04)
KSSQSRLYESRNKNSVS	WASTRES	NQYHRLPLS	n.d. n.d. n.d.	n.d.	3 of 9 (4.35)
KSSQSVLYESRNKDSVA	WASTRPS	QNYHRLPLS	n.d. n.d. n.d.	n.d.	1 of 9 (3.51)
KSSQSHLFESRNKNSVA	WASTDES	QQYHRLPLS	n.d. n.d. n.d.	n.d.	2 of 9 (5.06)

Parent in this assay: reference entry 0.65, copy in this library 1.68.